Data published in published antibiotic growth screens (doi:10.1038/s41589-023-01349-8).
This is one part of the list.

tested on: A. baumannii ATCC 17978; assay: relative growth (fraction of control); higher = less inhibition; details: 50 µM

SMILES | relative growth
COc1cccc(S(=O)(=O)N[C@@H]2C=C[C@@H](CC(=O)NC3CCC3)O[C@H]2CO)c1 | 1.03
Cc1ccccc1OCC(O)CO (stereo not drawn) | 1.07
O=C(C[C@H]1CC[C@@H]2[C@H](COC[C@H](O)CN2S(=O)(=O)c2cccc(Cl)c2)O1)NCCCN1CCOCC1 | 0.826
COC(=O)CCc1c(C)[nH]c(=S)[nH]c1=O | 1.1
CCCNC(=O)N1C[C@H](O)COC[C@H]2O[C@H](CC(=O)N3CCOCC3)CC[C@@H]21 | 1.12
COc1ccc(CNC(=S)NN)cc1 | 0.895
CN(C)CCOC(C)(c1ccccc1)c1ccccn1.O=C(O)CCC(=O)O (stereo not drawn) | 1.2
O=C(O)[C@@H]1CC(=O)N(c2ccc3c(c2)OCO3)C1 | 1.08
NCC[C@H]1CC[C@@H](NC(=O)Cc2ccncc2)[C@@H](CO)O1 | 0.917
O=C(O)c1cc(-n2cnnn2)ccc1O | 0.972
CN(C)CCCCNC(=O)[C@@H]1C[C@@H]2C(=O)N[C@@H](CCCCN)C(=O)N2[C@@H]1c1ccc(O)cc1 | 1.12
CC(=O)c1ccc2ccccc2c1O | 0.977
CO[C@@H]1CN(C)C(=O)c2ccc(NC(C)=O)cc2OC[C@H](C)N(S(=O)(=O)c2cn(C)cn2)C[C@H]1C | 1.07
CC(=O)OCC(=O)[C@@]1(O)CCC2C3CCC4=CC(=O)CC[C@]4(C)C3C(=O)C[C@@]21C (stereo partly drawn) | 0.985
CC1(C)C(C(=O)O)N2C(=O)C[C@H]2S1(=O)=O (stereo partly drawn) | 0.166
O=C(Cc1ccncc1)NCC[C@H]1CC[C@@H](NC(=O)C2CCOCC2)[C@@H](CO)O1 | 1.03
CO[C@H]1CN(C)C(=O)c2cc(NC(=O)Nc3ccccc3F)ccc2OC[C@@H](C)N(Cc2ccccc2C(=O)O)C[C@@H]1C | 0.987
C[C@H](CO)N1C[C@H](C)[C@@H](CN(C)S(=O)(=O)c2ccccc2F)Oc2cc(C#Cc3cccc(F)c3)ccc2S1(=O)=O | 1.11
COC[C@H]1CN(C(=O)c2cccc(OC)c2)N1 | 1
C[C@@H]1CN([C@H](C)CO)C(=O)c2cc(Br)cnc2O[C@H]1CN(C)C(=O)Nc1ccc(F)cc1 | 0.887
O=C(CN1CCOCC1)NCC[C@H]1CC[C@H](NC(=O)c2ccccc2F)[C@H](CO)O1 | 0.971
C[C@@H]1CN([C@@H](C)CO)S(=O)(=O)c2ccc(-c3ccc(F)cc3)cc2O[C@H]1CN(C)S(C)(=O)=O | 0.888
C[C@H]1CCCN(C(=O)CCNS(=O)(=O)c2ccc3c(c2)c(=O)n(C)c(=O)n3C)C1 | 0.983
COc1ccc(S(=O)(=O)N2C[C@@H](O)COC[C@@H]3O[C@H](CC(=O)NCc4ccc(Cl)c(Cl)c4)CC[C@H]32)cc1 | 0.877

SMILES | relative growth
CCOC(=O)c1c(C)c(Cl)c(O)c(Cl)c1O | 1.04
CCNC(=O)CC[C@H](N)C(=O)[O-].[K+] | 1
C1CCN2C[C@@H]3C[C@H](CN4CCCC[C@@H]34)[C@H]2C1.O=S(=O)(O)O | 1
COc1ccc(C#Cc2ccc3c(c2)O[C@H](CN(C)S(=O)(=O)c2ccccc2F)[C@H](C)CN([C@H](C)CO)S3(=O)=O)cc1 | 1.12
CO[C@@H]1O[C@H](C(=O)O)[C@@H](O)[C@H](O)[C@@H]1O.CO[C@H]1[C@H](O)[C@H](O)[C@H](C)O[C@H]1C(=O)O [ALGINIC ACID [Mol Wt ~200,000; monomers shown]] | 1.14
CCOC(=O)n1ccn(C)c1=S | 1.12
O=C(CN1CCOCC1)NCC[C@H]1CC[C@H](NC(=O)c2ccc3c(c2)OCO3)[C@H](CO)O1 | 0.918
COc1cc(O)c2c(c1)C(=O)c1cc(C)cc(O)c1C2=O | 1.11
C[C@H]1CC[C@@]2(OC1)OC1CC3C4CC[C@@H]5C[C@@H](O)CCC5(C)C4CCC3(C)C1[C@@H]2C (stereo partly drawn) | 1.13
C=CCOC(=O)[C@H]1[C@@H]2C(=O)O[C@@H](c3ccccc3)[C@@H](c3ccccc3)N2[C@@H](c2ccc(OCCOC(=O)[C@H]3C[C@H]4C(=O)N[C@@H](CC(C)C)C(=O)N4[C@H]3c3ccc(O)cc3)cc2)[C@]12C(=O)Nc1ccccc12 | 1.09
CC(C)CC(NC(=O)C(C)NC(=O)CNC(=O)C(NC=O)C(C)C)C(=O)NC(C)C(=O)NC(C(=O)NC(C(=O)NC(C(=O)NC(Cc1c[nH]c2ccccc12)C(=O)NC(CC(C)C)C(=O)NC(Cc1c[nH]c2ccccc12)C(=O)NC(CC(C)C)C(=O)NC(Cc1c[nH]c2ccccc12)C(=O)NC(CC(C)C)C(=O)NC(Cc1c[nH]c2ccccc12)C(=O)NCCO)C(C)C)C(C)C)C(C)C (stereo not drawn) [GRAMICIDIN (gramicidin A shown)] | 1.14
CC(=O)OCC(=O)[C@@]1(OC(C)=O)[C@@H](C)CC2C3C[C@H](F)C4=CC(=O)C=C[C@]4(C)[C@@]3(F)[C@@H](O)C[C@@]21C (stereo partly drawn) | 1.21
CO[C@H](CN(C)S(=O)(=O)c1ccc(C)cc1)[C@H](C)CN([C@@H](C)CO)S(=O)(=O)c1cccc(Cl)c1 | 0.722
C=CCN1C(=O)[C@@]2(O[C@@H](CCn3cc([C@H](O)c4ccccc4)nn3)[C@H]([Si](C)(C)c3ccc(OC)cc3)[C@H]2C)c2cc(N3CCOC3=O)ccc21 | 1.1
O=C(C[C@@H]1CC[C@@H](NS(=O)(=O)c2ccccc2)[C@@H](CO)O1)NCc1ccncn1 | 1.03
Cl.O=C(c1ccc(OCCN2CCCCC2)cc1)c1c(-c2ccc(O)cc2)sc2cc(O)ccc12 | 1
O=C(CCCCCNC(=O)OCc1ccc([C@H]2[C@H](C(=O)NCc3ccccc3)c3ccccc3C(=O)N2Cc2ccccc2)cc1)NO | 0.968
C=CCN1C(=O)[C@@]2(O[C@@H](CCO)[C@H]([Si](C)(C)c3ccc(OC)cc3)[C@H]2C)c2cc(NC(=O)[C@H](C)O)ccc21 | 0.716
O=C(O)CNc1ccc(C(=O)O)cc1 | 0.854
NC(=O)CSCC(=O)Nc1ccccc1F | 0.987
Cc1cc(NS(=O)(=O)c2ccc(N)cc2)no1 | 1.06
C=C[C@](C)(O)CCC=C(C)C | 1.24
COC(=O)C1=CO[C@@H](O[C@@H]2O[C@H](CO)[C@@H](O)[C@H](O)[C@H]2O)[C@H]2C1C(=O)C[C@@H]2C (stereo partly drawn) | 1.13
NCC[C@@H]1CC[C@H](NC(=O)C2CC2)[C@@H](CO)O1 | 1.09
